Data from patent publication US20230265198A1 (TWIST BIOSCIENCE, published 2023).

Target: neuropilin-1 (NRP1) on HEK293 cells overexpressing NRP1 (UniProt O14786)
Test: flow cytometry, HEK293-NRP1 vs HEK293

NRP1-133 (antibody)
100 nM FACS (MFI Ratio): 10.8
